The text below walks through data of patent US9816075B2, “Compounds with modifying activity enhanced under hypoxic conditions” (Board of Regents, The University of Texas System, priority 2005, dated 2017).

The data set can be described thus: Animal toxicity screen / MTD by intraperitoneal injection. The note with it: mice, a = maximum dose due to poor solubility, b = acutely toxic with a single animal at 0.2 mg in 200 μL (about 6.0 mg/kg).

“[Ru2(phen)4tatpp]^4+ [[Ru2(phen)4(tatpp)]^4+]” gave an MTD of 67 mg/kg.
In the case of “[Ru2(phen)4tatpq]^4+ [[Ru2(phen)4(tatpq)]^4+]”, the MTD is 17 mg/kg.
